# Only a part is listed here, and it is no random draw. Records with an inconclusive call do not appear. Activity calls are given as the source filed them. The call rests on the fitted dose curve; in most records, active means well fitted activation curve with a large enough effect; inconclusive means small, poorly fitted or top-dose-only effect; inactive means no such curve, though single readings can be large or run the other way.
# Assay: qHTS screen for small molecules that induce genotoxicity in human embryonic kidney (HEK293T) cells expressing luciferase-tagged ELG1; further: % of control where 0% means no effect; nearly all actives have a fitted effect of over 60% in size
# Details: HEK293T ELG1-luciferase reporter, luminescence, 16 h; at 46 µM (top of the series)
# Description: NIH Molecular Libraries Probe Production Network [MLPCN] NIH Chemical Genomics Center [NCGC] MLPCN Grant: 1 R03 MH092164-01 Assay Provider: Kyungjae Myung, NHGRI, NIH Keywords: MLPCN, qHTS, NCGC, genotoxicity, cancer Assay Overview: Cancer cells divide rapidly compared to normal cells in the body. During cell division, cancer cells need to duplicate their genome by DNA replication. The failure of genome duplication leads to cancer cells' death. Therefore, inhibitors of DNA replication could specifically kill cancer cells. Based on this concept, many chemotherapeutic agents were developed and have been used to treat cancer patients. However, there are a limited number of agents available in the clinical setting, and some of those that do exist have low efficacy and severe side effects. Therefore, if we can find the compounds that effectively block DNA replication either by directly damaging DNA or by inhibiting other cellular mechanisms, the options for cancer treatment will be broadened. With this in mind, we developed a quantitative high-throughput ELG1-luciferase reporter gene assay. Since the level of human ELG1 protein is enhanced in response to genetic stresses, increases in luciferase activity can be used to identify compounds that cause genetic stress.
# Assay Protocol Summary: For genotoxicity screening, 2,000 cells in 5 uL/well were dispensed into white, solid-bottom 1536-well plates using a solenoid-based dispenser. Following transfer of 23 nL compound or DMSO vehicle by a pin tool, the plates were incubated 16 hr at 37 °C and 5% CO2. 5 ul ONE-Glo (Promega) was then added to each plate and following a 30 min incubation at room temperature, luciferase activity was quantified on a ViewLux CCD-based plate reader.
row,SMILES,"activity change, positive = activation"
1,COc1ccccc1CNC(=O)COC(=O)C(O)(c1ccccc1)c1ccccc1,inactive: 0.0207%
2,O=[As](O)(c1ccccc1Br)c1ccccc1Br,inactive: -1.68%
3,CC(C)/C=N\N=C(\N)N[N+](=O)[O-],inactive: 1.45%
4,CCOP(=O)(Nc1ccc(C)cn1)OCC,inactive: -2.13%
5,CCOP(=O)(NC(=NC(C)c1ccccc1)NC(C)c1ccccc1)OCC (stereo not given),inactive: 0.796%
6,CCC1=CC2Cc3nc4ccc(Cl)cc4c(N)c3C(C1)C2 (stereo not given),inactive: -9.33%
7,O=P1(Nc2ccccn2)COc2ccccc2OC1,inactive: -0.0383%
8,CC(C)(C)C(=O)NC(Sc1ncccn1)C(Cl)(Cl)Cl (stereo not given),inactive: -4.37%
9,Clc1n[nH]nc1-c1nn[nH][15n]1,inactive: -0.135%
10,O=P1(Nc2ncccn2)COc2ccccc2OC1,inactive: 0.857%
11,O=[As](O)(c1cccs1)c1cccs1,inactive: 6.59%
12,Cc1ccc(OCC(=O)OC2CN3CCC2CC3)cc1 (stereo not given),inactive: -1.34%
13,NS(=O)(=O)c1cccc(NC(=O)COC(=O)C(O)(c2ccccc2)c2ccccc2)c1,inactive: -0.215%
14,O=P1(Nc2ccc(Br)cn2)COc2ccccc2OC1,inactive: 1.36%
15,Nc1cccc([As](=O)(O)c2ccccc2)c1,inactive: -0.51%
16,Cc1ccc(C(=O)OC2CN3CCC2CC3)cc1 (stereo not given),inactive: 1.15%
17,CC1CCC(C(C)C)C(OP(=O)(Nc2ccccn2)c2ccccc2)C1 (stereo not given),inactive: -6.8%
18,Cc1nn(-c2ccccc2)c2c1P(=O)(N1CCOCC1)N(C)C(c1ccccc1)=N2 (stereo not given),inactive: 9.87%
19,O=C(/C=C/c1ccccc1)OC1CN2CCC1CC2 (stereo not given),inactive: 1.83%
20,CN(C)C1(CNC(=O)c2ccc(S(C)(=O)=O)cc2)CCCCC1,inactive: 3.42%
21,NC(=O)Nc1ccc([As](=O)(O)O)cc1,inactive: 4.61%
22,O=[N+]([O-])c1ccc2c(c1)nnn2O,inactive: 3.43%

row,SMILES,"activity change, positive = activation"
1,CCOP1(=S)c2c(C)nn(CCC#N)c2N=C(c2ccc(F)cc2)N1C (stereo not given),inactive: 0.704%
2,CN(C(=O)Cc1ccccc1)[C@@H]1CC[C@]2(CCCO2)C[C@H]1N1CCCC1,inactive: -6.36%
3,N#CCCN(C(=O)COC(=O)C(O)(c1ccccc1)c1ccccc1)c1ccc(F)cc1,inactive: 0.61%
4,CS(=O)(=O)c1cc([N+](=O)[O-])c2no[n+]([O-])c2c1,inactive: 1.18%
5,O=P(Nc1nccs1)(Oc1ccccc1)Oc1ccccc1,inactive: -2.57%
6,O=P(Nc1nccs1)(c1ccccc1)c1nc2ccccc2s1 (stereo not given),inactive: 2.55%
7,CCOP1(=S)c2c(C)nn(CCC#N)c2N=C(c2ccccc2F)N1C (stereo not given),inactive: -4.13%
8,O=C(O)COc1ccc([As](=O)(O)O)cc1[N+](=O)[O-],inactive: -2.35%
9,Nc1ccccc1[As](=O)(O)c1ccccc1,inactive: -1.76%
10,CCCOP(=S)(Nc1nc(N)cc(=O)[nH]1)OCCC,inactive: -0.832%
11,Nc1cccc2c([As](=O)(O)O)cccc12,inactive: -1.22%
12,Cc1ccc(NCCc2c([N+](=O)[O-])cc([N+](=O)[O-])cc2[N+](=O)[O-])cc1,inactive: -3.27%
13,CCOP(=O)(Nc1cccc2ccccc12)OCC,inactive: 0.845%
14,COc1cc(C2NCCC3(OCCO3)C2(C)C)cc(OC)c1OC (stereo not given),inactive: -0.331%
15,CS(=O)(=O)c1ccc(Cl)c(NC(=O)COC(=O)C(O)(c2ccccc2)c2ccccc2)c1,inactive: -8.39%
16,O=[As](O)(O)c1cccnc1,inactive: -0.437%
17,COc1cc(C(=O)NCC2(N3CCOCC3)CCCCC2)cc(Cl)c1OC(C)C,inactive: -5.09%
18,O=C(OC1CN2CCC1CC2)c1ccc(Cl)cc1 (stereo not given),inactive: 1.4%
19,O=[As](O)(c1cccc(O)c1)c1cccc(O)c1,inactive: -1.83%
20,COc1ccc(N/C(=N/P(=O)(N2CCOCC2)N2CCOCC2)N2CCOCC2)cc1,inactive: 1.94%
21,Cc1cc(=O)[nH]c(N[N+](=O)[O-])n1,inactive: 2.15%
22,O=C(OC1CN2CCC1CC2)C12CC3CC(CC(C3)C1)C2 (stereo not given),inactive: -2.7%

row,SMILES,"activity change, positive = activation"
1,Cc1c2c(nc3ccccc13)SC(C(Cl)Cl)C2 (stereo not given),inactive: 4.98%
2,COc1cc(I)ccc1[As](=O)(O)O,inactive: -1.72%
3,COc1ccc2nc(NP(=O)(c3ccccc3)c3ccccc3)sc2c1,inactive: -10.3%
4,CC(C)c1ccc(OP(=O)(Nc2ccccn2)Oc2ccccc2F)cc1 (stereo not given),inactive: -8.61%
5,ClCCSc1nnc(-c2cccnc2)o1,inactive: 8.23%
6,O=[N+]([O-])c1cc([N+](=O)[O-])c(-c2ccn[nH]2)s1,inactive: -8.36%
7,CC(C)NC(=O)NP(=O)(Oc1ccccc1)Oc1ccccc1,inactive: 0.157%
8,CCN(CC)C(=S)SC(NC=O)C(Cl)(Cl)Cl (stereo not given),inactive: -0.433%
9,COc1cc(C(=O)NCC2(N3CCOCC3)CCCCC2)ccc1OCC(C)C,inactive: -1.78%
10,C[As](=O)(O)c1cccc(C(=O)O)c1,inactive: 2.96%
11,O=[As](O)(c1ccc(O)cc1)c1ccccc1O,inactive: 0.83%
12,Cc1ccc2nc3c(c(C)c2c1)CC(C(Cl)Cl)S3 (stereo not given),inactive: 12.1%
13,Cc1ccc(OP(=O)(Nc2ccc([N+](=O)[O-])cn2)Oc2ccc(C)cc2)cc1,inactive: 0.369%
14,CCOC(=O)Nc1cccc([As](=O)(O)O)c1,inactive: 2.74%
15,O=[N+]([O-])c1ccc(Nc2ccc(Oc3ccc([N+](=O)[O-])cc3[N+](=O)[O-])cc2)c([N+](=O)[O-])c1,inactive: 3.81%
16,Cc1cc(SC(NC=O)C(Cl)(Cl)Cl)ncn1 (stereo not given),inactive: -6.32%
17,O=P(Nc1ccccn1)(c1cccc2ccccc12)c1cccc2ccccc12,inactive: -0.133%
18,CCOC(=O)Nc1ccc([As](=O)(O)O)c(O)c1,inactive: -1.11%
19,Cc1cc(SC(NC(=O)c2ccccc2)C(Cl)(Cl)Cl)nc(C(C)C)n1 (stereo not given),inactive: 1.84%
20,CCCCOc1ccc(C(=O)NCC2(N3CCCCC3)CCCCC2)cc1OC,inactive: -0.0513%
21,O=C(OC1CN2CCC1CC2)c1cccc([N+](=O)[O-])c1 (stereo not given),inactive: 1.79%

# Reference: PubChem BioAssay AID504466 (National Center for Advancing Translational Sciences (NCATS), 2011)
